The values that follow come from PubChem BioAssay AID1468 (National Center for Advancing Translational Sciences (NCATS), 2008).

Protein sequences, listed by entry. Tags and fused reporters are not part of them. Residues count along the entry.
UniProt P10636, 561-689 P618L limits assumed: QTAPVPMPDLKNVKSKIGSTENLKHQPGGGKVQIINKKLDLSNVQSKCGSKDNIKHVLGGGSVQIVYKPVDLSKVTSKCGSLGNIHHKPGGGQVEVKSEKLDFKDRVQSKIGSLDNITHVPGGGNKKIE

This is a selection; strong and weak results do not stand in their true shares. Records with an inconclusive call do not appear. Some salts or complexes appear as unconnected parts, following the source record. Calls of active or inactive are those of the source. Calls come from the whole dose curve; as a rule, active = well fitted inhibition curve with a large enough effect; inconclusive = small, poorly fitted or top-dose-only effect, or effect the other way; inactive = flat fitted curve, though single readings scatter.
% is set by controls: 0 for no effect and ±100 for the full control effect.

In this assay the target is Microtubule-associated protein tau (Homo sapiens) (UniProt P10636). The assay can be described thus: qHTS for Inhibitors of Tau Fibril Formation, Fluorescence Polarization. Note: nearly all actives have a fitted effect of over 55% in size. Particulars: K18 P301L tau heparin fibrillization, Alexa594 FP, 6 h; at 57.7 µM (top of the series). An excerpt:
NIH Molecular Libraries Probe Production Network [MLPCN]
NIH Chemical Genomics Center [NCGC]
Assay Provider: Carlo Ballatore, University of Pennsylvania
The microtubule-associated protein tau is an abundant protein in the axons of neurons that stabilizes microtubules. With its ability to modulate microtubule dynamics, tau contributes directly or indirectly, to key structural and regulatory cellular functions. Particularly important is the influence tau exerts on axonal transport, which allows signaling molecules, trophic factors and other essential cellular constituents to travel along the axons. Under pathological conditions, tau becomes sequestered into insoluble aggregates called neurofibrillary tangles. This phenomenon is believed to have pathological consequences by promoting axonal transport deficits that ultimately lead to synaptic dysfunction and neuronal loss. To identify inhibitors of tau aggregation, a heparin-induced tau fibril formation assay was used that employed a recombinantly expressed fragment of tau, K18 (Q242-E372), bearing a P301L mutation (Gustke et al. 1994; Hong et al. 1998).
Gustke, N., B. Trinczek, et al. (1994). "Domains of tau protein and interactions with microtubules." Biochemistry 33(32): 9511-22.
Hong, M., V. Zhukareva, et al. (1998).
Li, W. and V. M. Lee (2006). "Characterization of two VQIXXK motifs for tau fibrillization in vitro." Biochemistry 45(51): 15692-701.
von Bergen, M., S. Barghorn, et al. (2001). "Mutations of tau protein in frontotemporal dementia promote aggregation of paired helical filaments by enhancing local beta-structure." J Biol Chem 276(51): 48165-74.
NCGC Assay Protocol Summary:
For screening, 2 uL/well human K18 P301L (15 uM unlabeled and 0.24 uM Alexa 594-labeled tau final concentrations) in reagent buffer (100 mM sodium acetate pH 7) was dispensed into black solid 1536-well plates (Grenier) using a solenoid-based dispenser. Following transfer of 23 nL compound or DMSO vehicle by a pin tool, 2 uL/well heparin (20 uM final concentration) in reagent buffer was added and the plate centrifuged 15 s at 1000 RPM. Plates were incubated 6 hr at 37 C and then 1 uL/well ThT (30 uM final concentration) was added. After a 1 hr ambient incubation, the plates were read by an Envision (Perkin Elmer) to monitor Alexa 594 FP (555 nm excitation and 632 nm emission).
Keywords: NIH Roadmap, MLPCN, MLI, MLSMR, NCGC, qHTS, tau, tauopathies, Alzheimer's disease, fibril, neurodegeneration, aggregation
A general note: qHTS replaces the single test concentration by a dilution series.
With `COc1ccc(NC2CCN(CCc3ccccc3)CC2)c(OC)c1`, the activity, negative = inhibition is inactive: -7.3%.

Take `COc1ccccc1C(=O)NCC1(N2CCOCC2)CCCCC1`: the activity, negative = inhibition is inactive: -1.27%.

As for `O=C(NCC1(N2CCOCC2)CCCCC1)c1ccc(Cl)cc1`, the activity, negative = inhibition is inactive: 3.57%.

`Cc1ccc(OCC(C)C)c(CN(CCCl)CCCl)c1`: the activity, negative = inhibition was inactive: -7.25%.

In the case of `COc1ccc(C(=O)NCC2(N3CCCCC3)CCCCC2)c(OC)c1OC`, the activity, negative = inhibition was inactive: 0.805%.

For `CCOC(=O)N1CCC(Nc2ccc(OC)cc2)CC1`, the activity, negative = inhibition is inactive: 3.9%.

In the case of `O=C(OC1CN2CCC1CC2)C1c2ccccc2Oc2ccccc21` (stereo not given), the activity, negative = inhibition is inactive: -2.78%.

On to `N#CC1(Nc2ccccc2)CCN(Cc2ccccc2)CC1`, for which the activity, negative = inhibition was inactive: -14.2%.

`O=C(NCC1(N2CCOCC2)CCCCC1)c1cc2ccccc2o1`: the activity, negative = inhibition is inactive: 2.72%.

Regarding `COc1ccc(CN(CCCl)CCCl)cc1Cl`, the activity, negative = inhibition is inactive: 4.77%.

For the compound `CN(C)c1cccc(C(=O)NCC2(N3CCCCC3)CCCCC2)c1`, the activity, negative = inhibition was inactive: -2.25%.

In the case of `CCCCOc1ccccc1C(=O)NCC1(N2CCOCC2)CCCCC1`, the activity, negative = inhibition is inactive: -3.64%.

As for `O=C(NCC1(N2CCOCC2)CCCCC1)c1ccccc1Br`, the activity, negative = inhibition was inactive: 1.27%.

For the compound `COc1ccc2c(c1O)-c1c(O)c(OC)cc3c1[C@H](C2)[N+](C)(C)CC3.O=[N+]([O-])c1cc([N+](=O)[O-])c([O-])c([N+](=O)[O-])c1[O-]`, the activity, negative = inhibition was inactive: -5.54%.

For `O=C(OC1CN2CCC1CC2)c1ccc([N+](=O)[O-])cc1` (stereo not given), the activity, negative = inhibition is inactive: -1.21%.

Regarding `CCOc1ccc(C(=O)NCC2(N3CCOCC3)CCCCC2)cc1`, the activity, negative = inhibition was inactive: 2.89%.

In the case of `O=C(NCC1(N2CCCCC2)CCCCC1)c1cccc([N+](=O)[O-])c1`, the activity, negative = inhibition is inactive: -3.48%.

Take `N#CC1(Nc2ccccc2)CCN(CCc2ccccc2)CC1`: the activity, negative = inhibition is inactive: 2.15%.

Consider `COc1ccc(NC2CCN(C(=O)OC(C)(C)C)CC2)cc1`, for which the activity, negative = inhibition was inactive: 8.41%.

Take `CN1CCN(CCOC(=O)C(O)(c2ccccc2)c2ccccc2)CC1`: the activity, negative = inhibition is inactive: 0.934%.

For the compound `O=C(NCC1(N2CCOCC2)CCCCC1)c1cc(=O)[nH]c2ccccc12`, the activity, negative = inhibition is inactive: -6.57%.

Take `CCCOc1cccc(C(=O)NCC2(N3CCOCC3)CCCCC2)c1`: the activity, negative = inhibition was inactive: -2.03%.

`O=[N+]([O-])c1cc([N+](=O)[O-])c(NCC2CCS(=O)(=O)C2)c([N+](=O)[O-])c1` (stereo not given): the activity, negative = inhibition was inactive: 1.98%.

`CCOC(=O)C(CC)C1=NC(C)(C)Cc2ccccc21.O=[N+]([O-])c1cc([N+](=O)[O-])c(O)c([N+](=O)[O-])c1` (stereo not given): the activity, negative = inhibition was inactive: 4.47%.

As to `O=C(NCC1(N2CCOCC2)CCCCC1)c1ccc([N+](=O)[O-])cc1`, the activity, negative = inhibition was inactive: -1.53%.

In the case of `O=C(NCC1(N2CCOCC2)CCCCC1)c1ccccc1[N+](=O)[O-]`, the activity, negative = inhibition was inactive: -5.86%.

Regarding `N#Cc1ccc(C(=O)NCC2(N3CCCCC3)CCCCC2)cc1`, the activity, negative = inhibition was inactive: 6.37%.

As to `c1ccc(CN2CCC(Nc3ccccc3)CC2)cc1`, the activity, negative = inhibition was inactive: 5.22%.

For the compound `O=C(NCC1(N2CCOCC2)CCCCC1)c1ccccc1`, the activity, negative = inhibition was inactive: 3.24%.

For `COc1ccc(C(=O)NCC2(N3CCOCC3)CCCCC2)cc1OC`, the activity, negative = inhibition was inactive: 7.53%.

Consider `O=C(OC1CN2CCC1CC2)C1c2ccccc2C=Cc2ccccc21` (stereo not given), for which the activity, negative = inhibition is inactive: 5.94%.

Regarding `O=C(O)c1cccc(Nc2c([N+](=O)[O-])cc([N+](=O)[O-])cc2[N+](=O)[O-])c1`, the activity, negative = inhibition is inactive: 4.81%.

Turning to `N/C(=N\O)c1c(N)no[n+]1[O-]`, the activity, negative = inhibition was inactive: -0.243%.

On to `CC(C)(C)OC(=O)N1CCC(Nc2ccccc2)CC1`, for which the activity, negative = inhibition was inactive: 2.78%.

`CCOc1ncccc1C(=O)NCC1(N2CCOCC2)CCCCC1`: the activity, negative = inhibition was inactive: 3.59%.

With `CCCOc1ccc(C)cc1CN(CCCl)CCCl`, the activity, negative = inhibition is inactive: -5.46%.

Regarding `CCC(CO)(C(=O)OC1CN2CCC1CC2)c1ccccc1` (stereo not given), the activity, negative = inhibition is inactive: -2.82%.

As for `COc1cc(OC)cc(C(=O)NCC2(N3CCOCC3)CCCCC2)c1`, the activity, negative = inhibition is inactive: 4.68%.

As for `COc1cc(C(=O)NCC2(N3CCOCC3)CCCCC2)cc(OC)c1OC`, the activity, negative = inhibition was inactive: 8.26%.

As to `Fc1ccccc1NC1CCN(Cc2ccccc2)CC1`, the activity, negative = inhibition is inactive: 7.13%.

Regarding `CN(C)C1(CNC(=O)c2ccc(C(C)(C)C)cc2)CCCCC1`, the activity, negative = inhibition was inactive: -2.43%.

As to `CC(C)(C)c1ccc(C(=O)NCC2(N3CCOCC3)CCCCC2)cc1`, the activity, negative = inhibition is inactive: 1.25%.

With `CN(C)c1ccc(C(=O)NCC2(N3CCCCC3)CCCCC2)cc1`, the activity, negative = inhibition is inactive: 16.9%.

As to `Cc1ccccc1C(=O)NCC1(N(C)C)CCCCC1`, the activity, negative = inhibition is inactive: 3.97%.

In the case of `CCN1CCC(Nc2cccc(F)c2)CC1`, the activity, negative = inhibition was inactive: -14.5%.
